# Compound activity (PubChem)
# miR-21 FLuc: raises the signal of a miR-21 reporter | AID 2288 | 340,000 tested, under 10 active | Potency, µM (series often up to 38.3 µM), without a hit: at the highest dose reporter change, positive = more light | HeLa miR-21 FLuc reporter, luciferase, 48 h; active = well fitted rising curve with a large enough effect; inconclusive = small, poorly fitted or top-dose-only effect; inactive = no such curve, though single readings can be large or run the other way;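 further: % of control where 0% means no effect; miR-21 action dims this reporter so a rising signal means less miR-21 action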
#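 Using DMEM plus 10% FBS, HeLa miR-21-FLuc cells are incubated with test compounds (final up to about 40uM) for 48 hours; firefly luciferase signal is then imaged following reagent-mediated lysis.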
# Nrf2 block: Nrf2 pathway inhibition; AID 504444; A549 ARE-Fluc reporter, luciferase luminescence, 18-24 h; Potency, µM (top dose mostly 46 µM), inactives show at the top dose activity change, negative = inhibition, usual class: inhibitors; 2.1% of 360,000 active; note: potency is the fitted concentration of half-maximal effect; % is set by controls: 0 for no effect and ±100 for the full control effect; nearly all actives have a fitted effect of over 60% in size
#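 Concentration-response testing used A549 ARE_Fluc cells at 5000 cells/well. Following an 18-24 h compound incubation, viability was read by fluorescence (Ex 405/Em 525) and luciferase output by luminescence.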
# Nrf2 activator: activators of Nrf2 (ARE) signaling. AREc32 ARE-luciferase reporter (MCF7-derived line), luminescence, 24 h. Potency, µM (doses to about 46.1 µM), without a hit: at the top dose activation, most hits filed as activators. 0.31% of 410,000 active. AID 624171; note: potency is the fitted concentration of half-maximal effect; % of control where 0% means no effect; nearly all actives have a fitted effect of over 65% in size
#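 AREc32 cells carrying an ARE-driven firefly luciferase, 1000 cells/well in OPTI-MEM with 5% FBS, dosed after overnight attachment and incubated 24 hr at 37 deg C. Steady-Glo luminescence read after 30 min at RT.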
# A549 viability: counter-screen for Nrf2 inhibitors: cytotoxicity in A549 cells; A549 ARE-Fluc cells, CellTiter-Fluor viability, 18-24 h; Potency, µM (top dose mostly 46 µM), without a hit: at the top dose activity change, negative = cytotoxicity, usual class: inhibitors; 0.16% of 390,000 active; note: potency is the fitted concentration of half-maximal effect; % is set by controls: 0 for no effect and ±100 for the full control effect
#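 A549 ARE_Fluc cells in 5% FBS OPTI-MEM were exposed to compounds in concentration-response for 18-24 h at 37 deg C. Viability was read by CellTiter-Fluor fluorescence (Ex 405/Em 525) after 30 min, before the luciferase read.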
# B2AR arrestin: agonists driving beta-arrestin recruitment to human beta2-adrenergic receptor | AID 492947 | Potency, µM (series often up to 46.1 µM), inactives show at the top dose activation, hits mostly activators | P07550 | 0.02% of 330,000 active | beta-arrestin recruitment to beta2AR, cell-based reporter;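 note: potency is the fitted concentration of half-maximal effect; 0% = DMSO controls and full agonism = EC100 isoproterenol or metaproterenol; nearly all actives have a fitted effect of over 65% in size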
# Active calls of the source: *; ? = inconclusive; nt = no result. Only some compounds are listed: those with a hit (about 2.2% of all), similar ones and a draw of the others. Unless noted, calls come from the whole dose curve; as a rule, active = well fitted curve in the direction sought with a large enough effect; inconclusive = small, poorly fitted or top-dose-only effect, or another doubt; inactive = no such curve, though single readings can be large; an effect the other way counts as inactive or inconclusive.
cpd	canonical_smiles	miR-21 FLuc	Nrf2 block	Nrf2 activator	A549 viability	B2AR arrestin
1	CC1CN(S(=O)(=O)c2cc(C(=O)NCc3ccncc3)ccc2Cl)CC(C)O1 (stereo unspecified)	nt	-5.4%	-0.6%	-1.2%	-0.3%
2	O=C(NCCC1=CCCCC1)c1coc(=O)c(Br)c1	14.1%	?	12.6µM*	-27.6%	0.0%
3	CCOc1cc(CNc2ccc(O)cc2)ccc1OCc1ccc(Cl)cc1	-11.8%	-19.9%	?	-8.6%	nt
4	O=C(NCCC1=CCCCC1)c1ccc(Cl)c(S(=O)(=O)N2CCCCC2)c1	12.3%	14.6µM*	-0.3%	2.8%	5.6%
5	COc1ccc(Cl)cc1NC(=O)COC(=O)c1c(-c2ccccc2)noc1C	nt	10.3µM*	0.4%	-0.8%	0.4%
6	COc1ccc(-n2nnnc2S(=O)(=O)CC(=O)N2CCCCC2)cc1	?	25.9µM*	-4.0%	?	0.0%
7	Cc1cc(N2C(=O)c3ccccc3C2=O)n[nH]1	nt	11.2%	nt	12.6%	nt
8	Cc1c(NS(=O)(=O)c2ccc3c(c2)OCCO3)cccc1-c1nc2cccnc2s1	7.3%	20.6µM*	0.0%	-11.3%	0.2%
9	Cc1cc(-c2nc3cccnc3s2)ccc1NS(=O)(=O)c1ccc2c(c1)OCCO2	-16.2%	?	13.0%	6.1%	0.1%
10	C#CC(=O)N(c1ccc(OC)cc1OC)C(C(=O)NC1CCCC1)c1cccs1 (stereo unspecified)	12.8%	-11.6%	?	4.1%	0.6%
11	C#CC(=O)N(c1cc(OC)ccc1OC)C(C(=O)NC1CCCC1)c1cccs1 (stereo unspecified)	19.6%	10.3µM*	?	?	2.8%
12	O=C(NCc1ccccc1)c1cnc(N2CCCCC2)c2ccccc12	-35.7%	nt	3.9%	10.3%	nt
13	CNC(=O)c1ccc2nc(-c3ccco3)c(-c3ccco3)nc2c1	nt	-27.9%	nt	-10.7%	nt
14	CSC1=NC(C)(C)C=C(/C=C/c2ccc(Cl)cc2Cl)N1	-1.2%	15.8%	25.1µM*	3.4%	0.0%
15	CSC1=NC(C)(C)C=C(/C=C/c2ccc(Cl)cc2)N1	16.9%	-1.9%	5.62µM*	-0.9%	0.0%
16	CCSC1=NC(C)(C)C=C(/C=C/c2ccc(Cl)cc2Cl)N1	7.9%	nt	?	11.1%	-0.3%

# The list goes on, overlapping the part above by four compounds.
cpd	canonical_smiles	miR-21 FLuc	Nrf2 block	Nrf2 activator	A549 viability	B2AR arrestin
13	CNC(=O)c1ccc2nc(-c3ccco3)c(-c3ccco3)nc2c1	nt	-27.9%	nt	-10.7%	nt
14	CSC1=NC(C)(C)C=C(/C=C/c2ccc(Cl)cc2Cl)N1	-1.2%	15.8%	25.1µM*	3.4%	0.0%
15	CSC1=NC(C)(C)C=C(/C=C/c2ccc(Cl)cc2)N1	16.9%	-1.9%	5.62µM*	-0.9%	0.0%
16	CCSC1=NC(C)(C)C=C(/C=C/c2ccc(Cl)cc2Cl)N1	7.9%	nt	?	11.1%	-0.3%
17	O=[N+]([O-])c1ccc(Cl)cc1N/N=C/c1ccncc1	2.2%	-29.6%	1µM*	-4.7%	-0.5%
18	COc1ccc(-c2cc(C(F)(F)F)n3nc(C(=O)NCC45CC6CC(CC(C6)C4)C5)cc3n2)cc1	15.2%	14.6µM*	-0.5%	-10.2%	nt
19	COc1ccc(-c2cc(C(F)(F)F)n3nc(C(=O)NCC45CC6CC(CC(C6)C4)C5)cc3n2)cc1OC	2.2%	27.9%	0.5%	15.3%	nt
20	CC(=O)N1CCc2cc(S(=O)(=O)NCCCN3CCCCC3)ccc21	0.6%	0.6%	-0.1%	2.3%	-0.1%
21	CC(=O)N1CCc2cc(S(=O)(=O)NCCC3=CCCCC3)ccc21	nt	3.66µM*	-0.9%	-11.1%	nt
22	CC(=O)N1CCc2cc(S(=O)(=O)NCCC(=O)N3CCc4ccccc4C3)ccc21	1.7%	13µM*	0.2%	-15.8%	-0.8%
23	Cc1ccc(S(=O)(=O)NCCC2=CCCCC2)cc1C(N)=O	9.7%	10.3µM*	-0.8%	-4.9%	-0.6%
24	CC(=O)N1CCc2cc(S(=O)(=O)NC3CCCc4ccccc43)ccc21 (stereo unspecified)	-2.5%	6.31µM*	3.5%	-7.7%	-0.4%
25	CC1(C)OC(=O)C2(Cc3ccccc3N3CCCC32)C(=O)O1 (stereo unspecified)	nt	2.6%	nt	?	nt
26	O=[N+]([O-])c1ccccc1S(=O)(=O)N1CCN(c2nc(-c3ccccc3)nc3ccccc23)CC1	nt	2.6%	nt	11.5%	nt
27	CCC(=O)N1CCc2cc(S(=O)(=O)NCCC(=O)N3CCN(c4cccc(C)c4)C(C)C3)ccc21 (stereo unspecified)	14.8%	18.4µM*	0.8%	1.7%	-0.6%
28	Cc1ccc(NC(=O)c2cc(S(=O)(=O)NCCC3=CCCCC3)ccc2F)cc1F	15.3%	10.3µM*	0.5%	?	-0.4%
29	CCc1cc(=O)oc2c(C)c3c(cc12)CN(CCc1ccccc1OC)CO3	-7.8%	3.9%	5.8%	6.7%	nt
30	CCOC(=O)c1ccc(NC(=S)N2CCSC2c2ccc(Cl)cc2)cc1 (stereo unspecified)	-6.6%	20.6µM*	3.1%	?	0.2%
